Conditions: human, in vivo, po
From the text: The assays were validated according to the common FDA and EMA guidelines on bioanalytical method validation.

O=C(CCCCCCC(=O)Nc1ccccc1)NO [vorinostat]
t1/2, 25% Percentile: 1.05 h

— paper PMC6902473 (Clinical Epigenetics, 2019)
